Measured affinities in a library of Ab-91 heavy chain variants

Binding partner: SARS-CoV-2 spike HR2 peptide, sequence PDVDLGDISGINAS.

Each scFv is VL, a 15-residue (Gly4Ser)3 linker, VH, as in the parent Ab-91, and differs from it in the CDRs of the heavy chain only.
VL: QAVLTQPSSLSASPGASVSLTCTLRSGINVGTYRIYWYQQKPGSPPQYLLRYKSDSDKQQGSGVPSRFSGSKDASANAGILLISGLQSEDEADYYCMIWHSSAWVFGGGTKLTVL
VH: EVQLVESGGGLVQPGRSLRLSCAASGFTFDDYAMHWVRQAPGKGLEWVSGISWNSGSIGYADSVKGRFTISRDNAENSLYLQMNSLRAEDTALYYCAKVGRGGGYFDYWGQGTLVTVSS

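The parent was found by panning a naive human phage display library on the peptide. Library AAYL51 holds single substitutions and randomly drawn double and triple substitutions in the CDRs. Affinity was read by AlphaSeq, a pooled yeast mating assay with surface-displayed partners. The frequency of each diploid, read from paired DNA barcodes, reflects how well the two displayed proteins bind. Scores were corrected for input abundance and mapped to Kd with protein pairs of known affinity run in the same pool. Each pool was mated in three replicate cultures.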

Each variant is given by its three heavy chain CDRs, as the data file delimits them; those of the parent are GFTFDDYAMH, GISWNSGSIGYADSVK, VGRGGGYFDY. Values are log10 of the apparent Kd in nM; lower means stronger binding. The mean shown is taken over the replicates in which the pair was detected. Where no diploid with the target was found in that replicate, the entry reads "n.d.": below detection, most likely a poor binder, though not proof of it. Three control strains display no target. For library AAYL51, 21% of the pairings with them gave a signal, with a median of 4.54 and one signal in twenty below 3.26, so weak values seen in few replicates may be background. For each scFv, signals with the empty controls are counted beside the result, with their mean in brackets. Parent in this assay: reference entry 1.86, copy in this library 0.88.

{"CDR-H1": "GFTFDDYAMH", "CDR-H2": "GISWNSGSIGYADSVK", "CDR-H3": "VGRGGGFFDP", "replicates, log10 nM": "3.43 / 3.15 / 3.42", "log10 Kd (nM), mean": "3.34", "empty controls": "8/9 (4.43)"}
{"CDR-H1": "GFTFDDYAAH", "CDR-H2": "GISWNSGSTGYADSAK", "CDR-H3": "VGRGGGYFDY", "replicates, log10 nM": "n.d. / n.d. / n.d.", "log10 Kd (nM), mean": "n.d.", "empty controls": "2/9 (3.54)"}
{"CDR-H1": "GITFDDYWMH", "CDR-H2": "GISWNSGSIGYADSVK", "CDR-H3": "VGRGGGEFDY", "replicates, log10 nM": "n.d. / n.d. / n.d.", "log10 Kd (nM), mean": "n.d.", "empty controls": "0/9"}
{"CDR-H1": "GKTFDDYAMQ", "CDR-H2": "GISWNSGSIGYADSMK", "CDR-H3": "VGRGGGYFDY", "replicates, log10 nM": "2.85 / n.d. / n.d.", "log10 Kd (nM), mean": "2.85", "empty controls": "0/9"}
{"CDR-H1": "GFTFDDYAMH", "CDR-H2": "GISWNNGSIGYWDSVK", "CDR-H3": "VGRGGGCFDY", "replicates, log10 nM": "n.d. / n.d. / n.d.", "log10 Kd (nM), mean": "n.d.", "empty controls": "1/9 (3.84)"}
{"CDR-H1": "GFTFDDYAMH", "CDR-H2": "GISWNSGSIGYADSVK", "CDR-H3": "MGRGGGYDDY", "replicates, log10 nM": "1.43 / 1.39 / 0.96", "log10 Kd (nM), mean": "1.26", "empty controls": "8/9 (5.43)"}
{"CDR-H1": "GFTFVDYAMH", "CDR-H2": "GISWNSGSDGYADSNK", "CDR-H3": "VGRGGGYFDY", "replicates, log10 nM": "3.50 / n.d. / n.d.", "log10 Kd (nM), mean": "3.50", "empty controls": "0/9"}
{"CDR-H1": "GFTFDDYAMH", "CDR-H2": "GIEWNSGSIGYADSVK", "CDR-H3": "VGRGGGTKDY", "replicates, log10 nM": "n.d. / n.d. / n.d.", "log10 Kd (nM), mean": "n.d.", "empty controls": "2/9 (3.70)"}
{"CDR-H1": "GFTFIDYAMT", "CDR-H2": "GISWNSGSIGYADSVK", "CDR-H3": "VGRGGGYFDY", "replicates, log10 nM": "n.d. / n.d. / n.d.", "log10 Kd (nM), mean": "n.d.", "empty controls": "0/9"}
{"CDR-H1": "GQTFDDYAMH", "CDR-H2": "GISWNSGQIGYADSVK", "CDR-H3": "VGRGGGYFDN", "replicates, log10 nM": "2.33 / n.d. / n.d.", "log10 Kd (nM), mean": "2.33", "empty controls": "0/9"}
{"CDR-H1": "GFTFDDSAMH", "CDR-H2": "GISWNSGSIGLADSVK", "CDR-H3": "VGPGGGYFDY", "replicates, log10 nM": "n.d. / n.d. / n.d.", "log10 Kd (nM), mean": "n.d.", "empty controls": "0/9"}
{"CDR-H1": "GFTFDDYAMH", "CDR-H2": "GQSWNSGSIGSADSMK", "CDR-H3": "VGRGGGYFDY", "replicates, log10 nM": "n.d. / n.d. / n.d.", "log10 Kd (nM), mean": "n.d.", "empty controls": "2/9 (4.92)"}
{"CDR-H1": "GFTFDDYAMH", "CDR-H2": "GISMNSGSIGYADSVK", "CDR-H3": "VGFGAGYFDY", "replicates, log10 nM": "n.d. / n.d. / n.d.", "log10 Kd (nM), mean": "n.d.", "empty controls": "1/9 (4.34)"}
{"CDR-H1": "GFTFDDYAML", "CDR-H2": "GISWNSGSIGYADSVA", "CDR-H3": "VGRGGGDFDY", "replicates, log10 nM": "2.58 / 2.63 / 2.74", "log10 Kd (nM), mean": "2.65", "empty controls": "2/9 (5.17)"}
{"CDR-H1": "GFTFDDYAMH", "CDR-H2": "GISWNSVSIGYADIVK", "CDR-H3": "VGRGGAYFDY", "replicates, log10 nM": "0.90 / 0.88 / 0.31", "log10 Kd (nM), mean": "0.69", "empty controls": "8/9 (4.94)"}
{"CDR-H1": "GFTFDDYAMP", "CDR-H2": "GISWPSGSIGYADSVK", "CDR-H3": "VGRGGGYFDY", "replicates, log10 nM": "n.d. / n.d. / n.d.", "log10 Kd (nM), mean": "n.d.", "empty controls": "3/9 (4.95)"}
{"CDR-H1": "GFTFDDYDDH", "CDR-H2": "GISWNSGSIGYADSVK", "CDR-H3": "DGRGGGYFDY", "replicates, log10 nM": "n.d. / n.d. / 4.83", "log10 Kd (nM), mean": "4.83", "empty controls": "4/9 (4.52)"}
{"CDR-H1": "GFTFDIYIMH", "CDR-H2": "GISWNAGSIGYADSVK", "CDR-H3": "VGRGGGYFDY", "replicates, log10 nM": "n.d. / n.d. / n.d.", "log10 Kd (nM), mean": "n.d.", "empty controls": "0/9"}
{"CDR-H1": "GFIFDDYAMS", "CDR-H2": "GESWNSGSIGYADSVK", "CDR-H3": "VGRGGGYFDY", "replicates, log10 nM": "n.d. / n.d. / n.d.", "log10 Kd (nM), mean": "n.d.", "empty controls": "0/9"}
{"CDR-H1": "GSTFDDYEMH", "CDR-H2": "GASWNSGSIGYADSVK", "CDR-H3": "VGRGGGYFDY", "replicates, log10 nM": "n.d. / n.d. / n.d.", "log10 Kd (nM), mean": "n.d.", "empty controls": "0/9"}

Values reported by Engelhart et al. 2022, doi:10.1038/s41597-022-01779-4 (FLAb copy).